From PubChem BioAssay AID602363 (Broad Institute, 2012)
Among all 350,000 compounds or so, about 450 (0.13%) were called active.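 How the source made its calls: active means replicate mean at a twofold rise or more (about +100% in these data); inactive means the rest.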 Many of the other results were omitted from the sample, so actives are more common in it than they were.

Test: modulators of yeast start codon fidelity, primary screen, whole organism, S. cerevisiae, single point, plate reader (AID 602363)
Conditions: S. cerevisiae UUG-firefly luciferase reporter, luminescence/redox ratio; at 18.7 µM; active compounds read high

Activity score, active:
O=C(c1cccnc1)N1C[C@H]2[C@@H](c3ccccc31)[C@H](CO)N2C(=O)C1CC1 101%
O=C(C1CCC1)N1C[C@H]2[C@@H](c3ccccc31)[C@@H](CO)N2C(=O)c1ccccc1F 115%
O=C(N[C@H]1CC[C@@H](CCNS(=O)(=O)Cc2ccccc2)O[C@H]1CO)c1ccccc1F 170%
COc1ccc(CCN2C(=O)[C@@]3(Cc4ccccc42)c2ccccc2C(=O)N(Cc2ccccc2C(F)(F)F)[C@H]3c2ccc(CO)cc2)cc1 153%
CCOC(=O)C(=Cc1ccccc1OC)C(=O)OCC 448%

Activity score, inactive:
COc1cccc(S(=O)(=O)N[C@@H]2CC[C@@H](CCNC(=O)Cc3ccncc3)O[C@H]2CO)c1 0.154%
C[C@@H]1CN([C@@H](C)CO)C(=O)c2cc(-c3cccnc3)cnc2O[C@@H]1CN(C)C(=O)C1CC1 -5.34%
O=C(C[C@@H]1C[C@@H]2c3cc(NC(=O)Nc4ccc(C(F)(F)F)cc4)ccc3O[C@@H]2[C@@H](CO)O1)NCCc1ccccc1 -18.2%
C[C@@H]1CCCCO[C@H](CN(C)S(=O)(=O)c2cccs2)[C@@H](C)CN([C@@H](C)CO)C(=O)c2cc(NC(=O)NC3CCCCC3)ccc2O1 -8.53%
CO[C@@H]1CN(C)C(=O)c2cc(NC(=O)C3CC3)ccc2OC[C@@H](C)N(C(=O)c2ccncc2)C[C@H]1C 0.045%
CN(C)C(=O)c1ccc(-c2ccc([C@@H]3[C@@H](CO)N4CCCCN(Cc5cncnc5)C[C@@H]34)cc2)cc1 -3.82%
O=C(C1CCC1)N1C[C@@H]2[C@H](c3ccccc31)[C@H](CO)N2C(=O)c1ccccc1 53.9%
O=C(c1cccnc1)N1C[C@H]2[C@@H](c3ccccc31)[C@H](CO)N2C(=O)C1CCCCC1 -1.65%
O=C(c1ccccc1F)N1C[C@@H]2[C@H](c3ccccc31)[C@H](CO)N2C(=O)C1CCCC1 6.27%
O=C(c1cccnc1)N1C[C@@H]2[C@H](c3ccccc31)[C@@H](CO)N2C(=O)Nc1ccc(F)cc1 52.2%
COc1ccccc1-c1cn(CC[C@H]2CC[C@H](NC(=O)C3CCOCC3)[C@@H](CO)O2)nn1 -2.48%
C[C@@H]1CN([C@H](C)CO)S(=O)(=O)c2ccc(-c3ccccc3)cc2O[C@@H]1CN(C)C(=O)C1CC1 1.27%
Cn1cnc(CCNC(=O)C[C@H]2CC[C@H]3[C@@H](COC[C@H](O)CN3C(=O)C3CCCC3)O2)c1 2.13%
C[C@@H]1CCCCO[C@@H](CN(C)C(=O)Nc2ccc(F)cc2)[C@H](C)CN([C@@H](C)CO)C(=O)c2cc(NS(=O)(=O)c3ccccc3)ccc2O1 -2.99%
CCCC(=O)Nc1ccc2c(c1)C(=O)N(C)[C@H]1CC[C@@H](CC(=O)NCc3ccccc3)O[C@@H]1CO2 6.07%
COc1cccc(S(=O)(=O)N2C[C@@H](O)COC[C@@H]3O[C@H](CC(=O)N4CCN(C)CC4)CC[C@H]32)c1 25.3%
O=C(C1CCC1)N1C[C@H]2[C@@H](c3ccccc31)[C@H](CO)N2C(=O)Nc1cccc(F)c1 4.33%
CN1c2ccc(C#Cc3cccnc3)cc2[C@H]2[C@H](CCN2S(=O)(=O)c2ccccc2)[C@@H]1CO -20.3%
C[C@H]1CN([C@@H](C)CO)C(=O)c2cc(NC(=O)Cn3cnnn3)ccc2O[C@@H]1CN(C)CC1CCCCC1 -6.95%
C[C@H]1CN([C@@H](C)CO)C(=O)c2cc(Br)cnc2O[C@@H]1CN(C)C(=O)c1ccccc1F 1.14%
C[C@@H]1CCCCO[C@H](CN(C)Cc2ccc3c(c2)OCO3)[C@H](C)CN([C@@H](C)CO)C(=O)c2cc(NS(=O)(=O)c3cn(C)cn3)ccc2O1 0.464%
C[C@H]1CCCCO[C@H](CN(C)CC2CCCCC2)[C@@H](C)CN([C@@H](C)CO)C(=O)c2cc(NS(=O)(=O)c3ccc(Cl)cc3)ccc2O1 19.2%
Cc1noc(C)c1S(=O)(=O)Nc1ccc2c(c1)C(=O)N([C@@H](C)CO)C[C@@H](C)[C@@H](CN(C)S(=O)(=O)c1ccccc1)O2 -1.76%
C[C@H]1CN([C@@H](C)CO)C(=O)c2cccc(NC(=O)C3CC3)c2O[C@@H]1CN(C)S(=O)(=O)c1ccc(F)cc1 -5.43%
CN(C)CC(=O)Nc1ccc2c(c1)[C@@H]1C[C@H](CC(=O)NCc3ccc(Cl)cc3)O[C@@H](CO)[C@@H]1O2 26.4%
COCC(=O)Nc1ccc2c(c1)C(=O)N(C)[C@@H]1CC[C@H](CC(=O)NCC3CCCCC3)O[C@H]1CO2 -1.78%
CNC(=O)C[C@@H]1CC[C@@H]2[C@@H](COc3ccc(NC(=O)Cc4cccs4)cc3C(=O)N2C)O1 3.32%
CC(C)C#Cc1ccc2c(c1)O[C@@H](CN(C)C(=O)C1CC1)[C@H](C)CN([C@H](C)CO)S2(=O)=O 1.46%
O=S(=O)(Cc1ccccc1)N1CCCCN2[C@H](CO)[C@@H](c3ccc(-c4cncnc4)cc3)[C@H]2C1 -10.2%
COc1ccc(NC(=O)N(C)C[C@@H]2OCCCC[C@H](C)Oc3ccc(NS(=O)(=O)c4cccs4)cc3C(=O)N([C@@H](C)CO)C[C@@H]2C)cc1 -14.6%
C[C@H]1CN([C@@H](C)CO)C(=O)c2cccc(NS(C)(=O)=O)c2O[C@@H]1CN(C)C(=O)Nc1ccc(F)cc1 -0.709%
COCC(=O)N(C)C[C@H]1Oc2ncc(-c3cccc(OC)c3)cc2C(=O)N([C@H](C)CO)C[C@H]1C 11.3%
CO[C@H]1CN(C)C(=O)c2ccc(NS(=O)(=O)c3cn(C)cn3)cc2OC[C@@H](C)N(C)C[C@@H]1C -8.25%
C[C@@H]1CN([C@H](C)CO)C(=O)Cc2cc(NC(=O)CCCN(C)C)ccc2O[C@H]1CN(C)S(=O)(=O)c1cccs1 4.48%
CCC(=O)N1[C@@H](CO)[C@@H]2c3ccccc3N(C(=O)c3cnccn3)C[C@@H]21 -8.18%
CC(C)NC(=O)N[C@@H]1CC[C@@H](CCNS(=O)(=O)Cc2ccccc2)O[C@@H]1CO -4.26%
O=C(N[C@@H]1CC[C@@H](CCNS(=O)(=O)Cc2ccccc2)O[C@@H]1CO)c1ccccc1F -4.32%
C[C@@H]1CCCCO[C@H](CN(C)C(=O)Cc2ccccc2)[C@@H](C)CN([C@@H](C)CO)C(=O)c2cc(NC(=O)c3ccccc3)ccc2O1 0.371%
COCCCNC(=O)[C@@]1(C)c2ccccc2C(=O)N(Cc2ccc(OC(F)(F)F)cc2)[C@H]1c1ccc(CO)cc1 2.89%
CC(C)N1C(=O)[C@@]2(Cc3ccccc31)c1ccccc1C(=O)N(C1CCCCC1)[C@H]2c1ccc(CO)cc1 69%
COc1ccccc1NC(=O)N(C)C[C@@H]1Oc2ncc(Br)cc2C(=O)N([C@@H](C)CO)C[C@@H]1C 19.9%
CCOC(=O)C(=Cc1ccccc1)C(=O)c1ccccc1 -13%
CCOC(=O)C(=CNc1cccc(C)n1)C(=O)OCC -12%
COc1ccc(-c2cnc3c(c2)C(=O)N([C@@H](C)CO)C[C@@H](C)[C@H](CN(C)C)O3)cc1 -4.93%
N#Cc1cccc(-c2ccc3c(c2)[C@H]2[C@H](CCN2S(=O)(=O)c2ccc(F)cc2)[C@@H](CO)N3)c1 -15.3%
C[C@H]1CN([C@@H](C)CO)C(=O)Cc2cc(NC(=O)Nc3ccccc3)ccc2O[C@H]1CN(C)S(=O)(=O)c1cn(C)cn1 2.53%
C[C@H](CO)N1C[C@H](C)[C@@H](CN(C)Cc2cccnc2)Oc2cc(C#CC3CC3)ccc2S1(=O)=O 8.44%
COc1cccc(C(=O)Nc2ccc3c(c2)OC[C@H](C)N(C(C)=O)C[C@@H](C)[C@@H](OC)CN(C)C3=O)c1 43.4%
C/C=C/c1ccc2c(c1)O[C@@H](CN(C)C(=O)Cc1ccccc1)[C@H](C)CN([C@@H](C)CO)S2(=O)=O 58.8%
CC(C)NC(=O)N(C)C[C@H]1Oc2ccc(NC(=O)CCC(F)(F)F)cc2CC(=O)N([C@@H](C)CO)C[C@@H]1C -4.49%
CCCC(=O)Nc1ccc2c(c1)C(=O)N(C)[C@H]1CC[C@@H](CC(=O)NCC(F)(F)F)O[C@@H]1CO2 -2.34%
CO[C@@H]1CN(C)C(=O)c2cc(NC(=O)C3CCCC3)ccc2OC[C@H](C)N(C)C[C@@H]1C 3.06%
Cc1noc(C)c1NC(=O)Nc1ccc2c(c1)CC(=O)N([C@@H](C)CO)C[C@@H](C)[C@@H](CN(C)C(=O)NC(C)C)O2 -0.961%
C[C@H](O)C#Cc1cnc2c(c1)C(=O)N([C@H](C)CO)C[C@H](C)[C@H](CN(C)C(=O)c1ccc(F)cc1)O2 9.52%
CC(C)NC(=O)N(C)C[C@@H]1Oc2c(cccc2N(C)C)C(=O)N([C@@H](C)CO)C[C@H]1C -11.2%
C[C@H]1CN([C@@H](C)CO)C(=O)c2cc(NS(=O)(=O)c3cccs3)ccc2O[C@@H]1CN(C)C(=O)Nc1ccccc1 -9.65%
C[C@@H]1CN([C@@H](C)CO)S(=O)(=O)c2ccc(C#CCN(C)C)cc2O[C@@H]1CN(C)CC1CC1 33.3%
C[C@@H]1CCCCO[C@@H](CN(C)Cc2ccc(C(=O)O)cc2)[C@H](C)CN([C@@H](C)CO)C(=O)c2cc(NC(=O)C3CCCCC3)ccc2O1 3.06%
